Values quoted from earlier work, collected in US11235084B2, “Embolic microspheres” (Varian Medical Systems, Inc., priority 2017, dated 2022).

Substance	reported pKa values at 25° C.
N-(2-hydroxyethyl)piperazine-N′-(4-butanesulfonic acid)	8.3
piperazine-N,N′-bis(2-hydroxypropanesulfonic acid)	7.8
